Only a part is listed here, and it is no random draw. The source made the active and inactive calls. Cut-off read from the data, not from the text of the source: active = inhibition above about 22%; inactive = the rest.
Assay: rat intestinal IEC-6 viability loss – cell-based, luminescence, cytotoxicity control, confirmation (AID 1907);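 note: 0% = vehicle and 100% = reference cytotoxic drug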
Settings: IEC-6 rat intestinal epithelial viability, at 5 µM, active compounds read high

| SMILES | inhibition |
| --- | --- |
| C[N+]1=C2C=CC=CC=C2SC12C([N+](=O)[O-])=CC([N+](=O)[O-])=C[C-]2[N+](=O)[O-] (stereo unspecified) | active: 42.2% |

Source: PubChem BioAssay AID1907 (The Scripps Research Institute Molecular Screening Center, 2009)
